PubChem BioAssay AID720709 (National Center for Advancing Translational Sciences (NCATS), 2013)
The entries are a selection whose mix differs from that of the whole data set. Results filed as inconclusive are left out. Activity calls are given as the source filed them. Calls follow the shape of the dose curve; as a rule, active = well fitted inhibition curve with a large enough effect; inconclusive = small, poorly fitted or top-dose-only effect; inactive = no such curve, though single readings can be large or run the other way.

By UniProt entry, the sequences of proteins in these tests, tags left out. Where a name states a change or a piece, a line headed by the entry shows the natural chain unless it says otherwise.
UniProt O95398: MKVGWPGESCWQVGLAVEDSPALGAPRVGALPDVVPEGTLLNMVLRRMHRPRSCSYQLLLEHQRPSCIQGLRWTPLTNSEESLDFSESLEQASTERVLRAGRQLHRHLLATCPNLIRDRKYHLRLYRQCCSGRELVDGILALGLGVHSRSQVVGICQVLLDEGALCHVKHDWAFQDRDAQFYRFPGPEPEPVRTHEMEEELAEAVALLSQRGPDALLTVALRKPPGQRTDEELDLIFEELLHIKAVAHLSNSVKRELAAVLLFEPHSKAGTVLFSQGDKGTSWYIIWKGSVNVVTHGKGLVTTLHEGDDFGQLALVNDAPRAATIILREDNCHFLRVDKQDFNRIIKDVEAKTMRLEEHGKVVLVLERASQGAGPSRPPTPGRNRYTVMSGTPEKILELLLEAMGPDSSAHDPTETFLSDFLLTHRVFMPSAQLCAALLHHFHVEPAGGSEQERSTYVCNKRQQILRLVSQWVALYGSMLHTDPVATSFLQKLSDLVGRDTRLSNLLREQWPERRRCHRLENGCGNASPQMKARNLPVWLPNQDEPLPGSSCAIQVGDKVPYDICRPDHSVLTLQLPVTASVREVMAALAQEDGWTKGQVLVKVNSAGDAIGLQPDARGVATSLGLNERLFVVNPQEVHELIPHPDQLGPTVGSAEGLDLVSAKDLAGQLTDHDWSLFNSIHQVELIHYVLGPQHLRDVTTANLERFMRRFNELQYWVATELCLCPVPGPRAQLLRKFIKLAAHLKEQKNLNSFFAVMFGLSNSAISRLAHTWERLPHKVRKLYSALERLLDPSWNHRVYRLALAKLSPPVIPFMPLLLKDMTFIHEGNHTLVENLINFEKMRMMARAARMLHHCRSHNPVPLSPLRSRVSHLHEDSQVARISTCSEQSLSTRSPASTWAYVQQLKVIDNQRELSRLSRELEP

target: Rap guanine nucleotide exchange factor 3 (Homo sapiens) (UniProt O95398); experiment: qHTS for Antagonist of cAMP-regulated guanine nucleotide exchange factor 3 (EPAC1): primary screen; settings: EPAC1 GEF assay, Rap1b-BODIPY-GDP exchange fluorescence; at 115 µM (top of the series); also: nearly all actives have a fitted effect of over 50% in size
From the text: In multi-cellular eukaryotic organisms, the effects of cAMP are transduced by two ubiquitously-expressed intracellular cAMP receptors, the classic protein kinase A/cAMP-dependent protein kinase (PKA/cAPK) and the more recently discovered exchange protein directly activated by cAMP/cAMP-regulated guanine nucleotide exchange factor (EPAC/cAMP-GEF). Both PKA and EPAC are ubiquitously expressed in all tissues, and an increase in intracellular cAMP levels will lead to the activation of both PKA and EPAC. Therefore, careful dissections of the individual role and relative contribution of EPAC and PKA within the overall cAMP signaling in various model systems are critical for further elucidating the mechanism of cAMP signaling. To date no EPAC-specific antagonists and agonist, as well as isoform-specific agonists have been reported, and developing EPAC-specific pharmacological probes to determine the physiological functions that EPAC play in the overall cAMP-mediated signaling remains a major challenge within the research field. Furthermore, identified regulators of EPAC may lead to new mechanism-based therapeutic strategies specifically targeting the EPAC / cAMP-signaling components as EPAC has been implicated to play important roles in major human pathological conditions such as diabetes, heart disease, and cancer. This qHTS will be used to screen the Molecular Libraries Small Molecule Repository (MLSMR) as a concentration-titration series using the NCGC unique quantitative screening (qHTS) platform to find inhibitors for EPAC1. In addition, this assay will also be used as a counterscreen for the EPAC2 qHTS. This fluorescent based assay is developed and validated for EPAC1 that measures exchange using EPAC effector Rap1 complex with BODIPY-GDP, a GDP analog with a tethered fluorophores. Inhibitors are identified by monitoring the change in fluorescence signal as the exchanged free BODIPY-GDP has a reduced fluorescence compared to Rap1-bound BODIPY-GDP. Decrease in signal (inhibition) is the desired outcome for the EPAC1 antagonist while no activity in this assay is desired for the EPAC2 antagonist counterscreen. de Rooij, J., Zwartkruis, F. J., Verheijen, M. H., Cool, R. H., Nijman, S. M., Wittinghofer, A., and Bos, J.L. (1998) Nature 396, 474-477 [2] Kawasaki, H., Springett, G. M., Mochizuki, N., Toki, S., Nakaya, M., Matsuda, M., Housman, D. E., and Graybiel, A. M. (1998) Science 282, 2275-2279 NIH Chemical Genomics Center [NCGC] NIH Molecular Libraries Probe Centers Network [MLPCN] MLPCN Grant: NS066510 Assay Submitter (PI): Xiaodong Cheng, The University of Texas, Medical Branch
Briefly, three uL of reagents (100 nM EPAC1, 250 nM RAP1B-BODIPY-GDP, 50 uM GDP) were dispensed into a 1536-well Greiner black solid-bottom medium binding assay plate. Controls and test compounds (23 nL) were transferred to the plate via a Kalypsys pin tool equipped with a 1536-pin array. The plates were centrifuged at 1,000 rpm for 15 seconds followed by 5 minute incubation at room temperature. The assay plates were read at 5 minute intervals for 30 minutes in the ViewLux plate reader using 480nm excitation and 540nm emission filters. The results were normalized to the […] positive control ATA and DMSO.

Row | Compound | activity change, negative = inhibition
1 | CN(C)C1(CNC(=O)c2ccc(S(C)(=O)=O)cc2)CCCCC1 | inactive: -4.61%
2 | O=C(/C=C/c1ccccc1)OC1CN2CCC1CC2 (stereo not given) | inactive: -1.07%
3 | CCCC1OP(=O)(Nc2ccccc2)OCC1CC (stereo not given) | inactive: -1.58%
4 | COc1ccccc1CNC(=O)COC(=O)C(O)(c1ccccc1)c1ccccc1 | inactive: -15.2%
5 | CC(C)/C=N\N=C(\N)N[N+](=O)[O-] | inactive: -0.404%
6 | CC1(CBr)Cn2c(nc3ccccc3c2=O)S1 (stereo not given) | inactive: 5.59%
7 | O=P1(Nc2ccccn2)COc2ccccc2OC1 | inactive: -15.5%
8 | CCOP(=O)(NC(=NC(C)c1ccccc1)NC(C)c1ccccc1)OCC (stereo not given) | inactive: -24.1%
9 | CN(CCCl)Cc1cc(Cl)c(NC2=NCCN2)c(Cl)c1 | inactive: -8.78%
10 | CCOP(=O)(Nc1ccc(C)cn1)OCC | inactive: 0.0787%
11 | Clc1n[nH]nc1-c1nn[nH][15n]1 | inactive: -9.46%
12 | O=P1(N(CCCl)CCCl)NCCC(C(F)(F)F)O1 (stereo not given) | inactive: 7.68%
13 | CC(C)(C)C(=O)NC(Sc1ncccn1)C(Cl)(Cl)Cl (stereo not given) | inactive: -2.69%
14 | Nc1cccc2c([As](=O)(O)O)cccc12 | inactive: 1.93%
15 | Cc1ccc(NCCc2c([N+](=O)[O-])cc([N+](=O)[O-])cc2[N+](=O)[O-])cc1 | inactive: -8.94%
16 | CCCOP(=S)(Nc1nc(N)cc(=O)[nH]1)OCCC | inactive: -1.46%
17 | COc1cc(C2NCCC3(OCCO3)C2(C)C)cc(OC)c1OC (stereo not given) | inactive: 2.87%
18 | CCOP(=O)(Nc1cccc2ccccc12)OCC | inactive: -11.3%
19 | O=C(OC1CN2CCC1CC2)c1ccc(Cl)cc1 (stereo not given) | inactive: -4.97%
20 | COc1cc(C(=O)NCC2(N3CCOCC3)CCCCC2)cc(Cl)c1OC(C)C | inactive: -11.8%
21 | O=[As](O)(O)c1cccnc1 | inactive: -28.4%
22 | CS(=O)(=O)c1ccc(Cl)c(NC(=O)COC(=O)C(O)(c2ccccc2)c2ccccc2)c1 | inactive: -7.34%
23 | O=[As](O)(c1cccc(O)c1)c1cccc(O)c1 | inactive: -3.71%
24 | Cc1cccc(OCC(=O)OC2CN3CCC2CC3)c1 (stereo not given) | inactive: 5.35%
25 | NC(=O)Nc1ccc([As](=O)(O)O)cc1 | inactive: -2.54%

Row | Compound | activity change, negative = inhibition
26 | N#CCCN(C(=O)COC(=O)C(O)(c1ccccc1)c1ccccc1)c1ccc(F)cc1 | inactive: -3.93%
27 | CN(C(=O)Cc1ccccc1)[C@@H]1CC[C@]2(CCCO2)C[C@H]1N1CCCC1 | inactive: -17%
28 | CN(C)C(=O)c1cc([N+](=O)[O-])cc2c1-c1c(cc([N+](=O)[O-])cc1[N+](=O)[O-])C2=O | inactive: 1.66%
29 | O=[N+]([O-])c1ccc2c(c1)nnn2O | inactive: 0.0678%
30 | CN(C(=O)Cc1ccc(Cl)c(Cl)c1)[C@H]1CC[C@@]2(CCCO2)C[C@@H]1N1CCCC1 | inactive: -0.237%
31 | CCOP1(=S)c2c(C)nn(CCC#N)c2N=C(c2ccccc2F)N1C (stereo not given) | inactive: -6.98%
32 | O=P(Nc1nccs1)(c1ccccc1)c1nc2ccccc2s1 (stereo not given) | inactive: -4.7%
33 | O=P(Nc1nccs1)(Oc1ccccc1)Oc1ccccc1 | inactive: -10.3%
34 | CS(=O)(=O)c1cc([N+](=O)[O-])c2no[n+]([O-])c2c1 | inactive: 1.73%
35 | O=C(O)COc1ccc([As](=O)(O)O)cc1[N+](=O)[O-] | inactive: -20%
36 | Nc1ccccc1[As](=O)(O)c1ccccc1 | inactive: 16.5%
37 | CCC(=O)N1C2C3N(C(=O)CC)C1C1N(C(=O)CC)C(C(N1C(=O)CC)N3C(=O)CC)N2C(=O)CC | inactive: -0.752%
38 | COC(=O)c1cc2c(s1)N=C(c1ccccc1)N(C)P2(=O)N1CCOCC1 (stereo not given) | inactive: -7.81%
39 | Cc1ccc(OP(=O)(Nc2ccccn2)Oc2ccc(C)cc2)cc1 | inactive: -2.86%
40 | CC(=O)NC(SC(=S)N(CC(C)C)CC(C)C)C(Cl)(Cl)Cl (stereo not given) | inactive: -0.11%
41 | Cc1ccccc1OP(=O)(Nc1ccccn1)Oc1ccccc1C | inactive: 9.16%
42 | CC(NC(=O)COC(=O)C(O)(c1ccccc1)c1ccccc1)c1ccccc1 (stereo not given) | inactive: -0.293%
43 | CN(C)C(=O)Oc1noc2ccccc12 | inactive: -4.5%
44 | O=c1c2cc([N+](=O)[O-])ccc2[nH]c2c([N+](=O)[O-])cc([N+](=O)[O-])cc12 | inactive: -4.3%
45 | c1ccc(-c2nn[nH]n2)c(-c2nn[nH]n2)c1 | inactive: -9.77%
46 | Cc1ccc(NP(=O)(Oc2cccc(C)c2)Oc2cccc(C)c2)nc1 | inactive: 6.87%
47 | CCNC(=S)/N=C(\N)N[N+](=O)[O-] | inactive: 4.11%
48 | O=P1(N(CCCl)CCCl)OCCC2CCCCN21 (stereo not given) | inactive: 4.8%
49 | C[C@@H]1C=CCP(=O)(Oc2ccccc2)O1 (stereo not given in full) | inactive: -8.65%
50 | C[C@H]1OP(=O)(Oc2ccccc2)C[C@@H]2O[C@@H]21 (stereo not given in full) | inactive: -17.9%
